Literature values, collected in paper PMC6176901 (ChemMedChem, 2018).

Experiments:
[1] = biological target: T1, Drosophila melanogaster Golgi α-mannosidase (GMIIb) (Drosophila melanogaster, UniProt Q9VF33); conditions: read-out: GMIIb IC50; ref 9q; cited from earlier work
T1 sequence (Q9VF33 31-1249): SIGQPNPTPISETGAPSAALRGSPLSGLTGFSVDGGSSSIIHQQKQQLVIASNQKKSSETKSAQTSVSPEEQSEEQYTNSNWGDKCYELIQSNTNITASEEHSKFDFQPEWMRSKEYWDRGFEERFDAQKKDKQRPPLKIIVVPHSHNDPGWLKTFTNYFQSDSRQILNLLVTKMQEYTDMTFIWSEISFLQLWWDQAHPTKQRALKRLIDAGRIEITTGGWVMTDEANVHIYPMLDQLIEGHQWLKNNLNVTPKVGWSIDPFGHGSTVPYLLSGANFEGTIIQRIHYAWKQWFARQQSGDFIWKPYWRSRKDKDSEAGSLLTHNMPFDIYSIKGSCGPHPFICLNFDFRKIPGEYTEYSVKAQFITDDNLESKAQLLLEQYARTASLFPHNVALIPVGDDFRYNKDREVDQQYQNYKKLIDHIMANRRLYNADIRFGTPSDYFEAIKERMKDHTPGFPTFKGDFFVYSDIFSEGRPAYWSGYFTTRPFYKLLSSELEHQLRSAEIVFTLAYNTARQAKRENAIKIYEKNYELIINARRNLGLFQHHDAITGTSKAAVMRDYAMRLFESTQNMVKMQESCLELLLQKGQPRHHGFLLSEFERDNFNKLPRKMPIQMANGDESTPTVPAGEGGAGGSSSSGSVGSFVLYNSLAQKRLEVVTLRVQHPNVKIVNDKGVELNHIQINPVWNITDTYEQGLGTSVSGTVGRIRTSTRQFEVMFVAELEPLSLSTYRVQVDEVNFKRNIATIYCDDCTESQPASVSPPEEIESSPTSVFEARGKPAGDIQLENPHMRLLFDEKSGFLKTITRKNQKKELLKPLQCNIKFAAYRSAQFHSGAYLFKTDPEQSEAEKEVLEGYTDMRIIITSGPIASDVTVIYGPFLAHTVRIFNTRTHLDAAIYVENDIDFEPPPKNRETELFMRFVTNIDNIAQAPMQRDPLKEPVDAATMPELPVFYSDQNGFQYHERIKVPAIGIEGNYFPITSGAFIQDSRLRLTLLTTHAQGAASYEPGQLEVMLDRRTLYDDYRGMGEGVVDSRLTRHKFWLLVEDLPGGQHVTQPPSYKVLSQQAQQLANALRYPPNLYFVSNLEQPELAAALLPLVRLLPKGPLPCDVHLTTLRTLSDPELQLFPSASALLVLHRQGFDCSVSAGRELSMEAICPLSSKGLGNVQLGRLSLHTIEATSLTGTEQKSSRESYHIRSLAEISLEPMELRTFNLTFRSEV

[2] = biological target: T2, Drosophila melanogaster lysosomal α-mannosidase (LManII) (Drosophila melanogaster, UniProt Q9VKV1); conditions: read-out: LManII IC50; ref 9q; cited from earlier work
T2 sequence (Q9VKV1 25-1080): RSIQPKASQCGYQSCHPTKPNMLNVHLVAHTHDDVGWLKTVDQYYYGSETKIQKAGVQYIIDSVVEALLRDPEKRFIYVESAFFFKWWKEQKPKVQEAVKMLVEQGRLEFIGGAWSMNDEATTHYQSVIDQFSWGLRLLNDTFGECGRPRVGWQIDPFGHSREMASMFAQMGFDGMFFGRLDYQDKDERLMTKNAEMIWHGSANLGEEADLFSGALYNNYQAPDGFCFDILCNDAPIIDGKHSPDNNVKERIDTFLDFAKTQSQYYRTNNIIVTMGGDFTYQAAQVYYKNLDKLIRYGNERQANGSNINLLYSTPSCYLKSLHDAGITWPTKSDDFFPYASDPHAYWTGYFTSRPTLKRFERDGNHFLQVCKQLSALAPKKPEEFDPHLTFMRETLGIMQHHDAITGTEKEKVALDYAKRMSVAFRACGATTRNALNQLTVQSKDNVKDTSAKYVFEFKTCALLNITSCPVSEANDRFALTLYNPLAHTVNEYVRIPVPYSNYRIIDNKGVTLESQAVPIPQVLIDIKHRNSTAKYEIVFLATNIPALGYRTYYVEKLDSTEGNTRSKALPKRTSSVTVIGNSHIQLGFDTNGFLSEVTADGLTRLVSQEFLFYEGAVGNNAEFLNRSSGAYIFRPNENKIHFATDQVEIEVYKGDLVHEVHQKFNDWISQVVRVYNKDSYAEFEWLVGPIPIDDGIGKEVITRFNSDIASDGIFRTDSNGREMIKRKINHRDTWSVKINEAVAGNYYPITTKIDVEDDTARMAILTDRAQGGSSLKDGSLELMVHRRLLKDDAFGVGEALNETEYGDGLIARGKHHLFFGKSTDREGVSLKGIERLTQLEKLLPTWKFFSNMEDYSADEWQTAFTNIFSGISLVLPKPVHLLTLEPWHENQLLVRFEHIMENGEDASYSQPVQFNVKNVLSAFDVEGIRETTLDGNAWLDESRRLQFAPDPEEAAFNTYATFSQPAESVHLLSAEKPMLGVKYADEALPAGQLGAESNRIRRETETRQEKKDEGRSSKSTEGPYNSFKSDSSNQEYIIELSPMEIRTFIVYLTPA

In the case of O[C@H]1[C@H]2[C@H](O)CCCN2C[C@H]1O [Compound 1, (1S,2R,8R,8aR)-trihydroxy-indolizidine], the IC50 [1] is given as 0.05 µM and the IC50 [2] is given as 0.11 µM.
